How the values were obtained:
[1] = molecular target: T1, Membrane-associated tyrosine- and threonine-specific cdc2-inhibitory kinase (Homo sapiens, UniProt Q99640)
T1 sequence (Q99640 whole entry): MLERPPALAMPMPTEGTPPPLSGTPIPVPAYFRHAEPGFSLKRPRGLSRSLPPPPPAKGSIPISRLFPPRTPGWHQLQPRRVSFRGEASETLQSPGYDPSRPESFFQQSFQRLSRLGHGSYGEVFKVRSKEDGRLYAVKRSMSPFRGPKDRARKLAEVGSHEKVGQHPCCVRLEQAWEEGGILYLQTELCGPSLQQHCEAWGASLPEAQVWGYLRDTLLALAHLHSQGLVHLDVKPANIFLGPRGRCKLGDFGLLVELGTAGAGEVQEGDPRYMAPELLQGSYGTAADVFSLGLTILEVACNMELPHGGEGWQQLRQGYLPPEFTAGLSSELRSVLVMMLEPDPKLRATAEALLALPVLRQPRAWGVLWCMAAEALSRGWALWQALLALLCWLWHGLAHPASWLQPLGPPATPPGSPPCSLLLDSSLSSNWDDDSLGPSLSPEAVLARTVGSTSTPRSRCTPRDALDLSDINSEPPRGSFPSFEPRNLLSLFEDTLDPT

Sequences of proteins named here, by UniProt entry; tags and fusion partners are left off.
UniProt P08684, whole entry: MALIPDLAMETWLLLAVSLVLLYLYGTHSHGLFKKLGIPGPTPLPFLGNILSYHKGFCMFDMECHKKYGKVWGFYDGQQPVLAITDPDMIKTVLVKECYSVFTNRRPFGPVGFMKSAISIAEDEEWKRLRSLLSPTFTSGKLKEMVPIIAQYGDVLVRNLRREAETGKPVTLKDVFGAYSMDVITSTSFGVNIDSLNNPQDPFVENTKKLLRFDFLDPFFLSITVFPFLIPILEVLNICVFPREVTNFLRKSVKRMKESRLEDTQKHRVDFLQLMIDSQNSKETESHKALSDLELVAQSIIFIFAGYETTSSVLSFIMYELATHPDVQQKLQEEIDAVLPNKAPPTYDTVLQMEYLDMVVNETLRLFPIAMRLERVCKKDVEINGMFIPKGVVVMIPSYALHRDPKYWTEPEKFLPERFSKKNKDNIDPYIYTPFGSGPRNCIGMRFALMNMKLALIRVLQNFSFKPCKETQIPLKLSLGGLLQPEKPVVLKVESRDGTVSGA

[2] = molecular target: CYP3A4 (Homo sapiens, UniProt P08684); assay: in vitro

Compound | IC50 [1] | IC50 shift [2]
COc1ccc(C)c(-n2c(N)c(C(N)=O)c3nc4ccccc4nc32)c1C | 5300 nM | 
NC(=O)c1c(N)n(-c2cccc(O)c2)c2nc3ccccc3nc12 | 370 nM | 
Cc1ccc(O)c(C)c1-n1c(N)c(C(N)=O)c2nccnc21 |  | 1
Cc1ccc(O)c(C)c1-n1c(Cl)c(C(N)=O)c2nc3ccccc3nc21 | 2400 nM | 
Cc1cc(O)ccc1-n1c(N)c(C(N)=O)c2nc3ccccc3nc21 | 8400 nM | 
Cc1ccc(O)cc1-n1c(N)c(C(=O)NCCO)c2nc3ccccc3nc21 | 1200 nM | 

Source: ChEMBL document CHEMBL5137074 (J Med Chem, 2022)
